Laboratory results taken from patent US5258185A, “Highly active, rapidly absorbable formulations of glibenclamide, processes for the production thereof and their use” (priority 1989, dated 1993).

Assay: solubility of glibenclamide
Assay type: physicochemical
Settings: in contrast to carrier substances of DE-OS 23 55 743, below 50° C.
Procedure: Glibenclamide (INN) is a sulfonyl urea derivative having the chemical IUPAC designation: N-4-(5-chloro-[2-methoxy-benzamido)ethyl]phenylisulfonyl-N'-cyclohexyl urea. […] Together with alkalis, it forms salts which, have very limited solubility in water as compared to tolbutamide, which is also a blood sugar reducing substance. The molecular weight is 494.02, and the melting point is 172° to 174° C. (cf. R. Groning: Arzneistoffprofile und Bioverfugbarkeitsdaten von Fertigarzneimitteln, Arzneistoffmonographie Glibenclamid, Deutscher Apothekerverlag, Stuttgart, pages 1 to 7, 1987; Euglucon® N, Semi-Euglucon® N: Pharmakologische und klinische Daten, Praparateinformation Boehringer Mannheim GmbH und Hoechst AG, Frankfurt/Main, 1984).
It follows from these investigations that due to its minor water-solubilityand dissolution rate that glibenclamide is counted among the biopharmaceutically problematic pharmaceutical preparations.
DE-OS 23 48 334 describes a rapidly absorbable formulation of glibenclamide and a process for the production thereof. Glibenclamide was processed into rapidly absorbable formulations by means of pulverization to form as large a surface finest as possible or by finest precipitation, from organic solvents in dispersing agents. Extremely fine crystallizates having a surface size of 3 to 10 m^2 were obtained by the methods defined in DE-OS 23 48 334. […]

Structure (SMILES): COc1ccc(Cl)cc1C(=O)NCCc1ccc(S(=O)(=O)NC(=O)NC2CCCCC2)cc1 [Glibenclamide, N-4-(5-chloro-[2-methoxy-benzamido)ethyl]phenylisulfonyl-N'-cyclohexyl urea]
- dissolution of glibenclamide by low-molecular polyethylene glycols: better
